Only a part is listed here, and it is no random draw. Activity calls are given as the source filed them.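 Rule for the calls: active = inhibition above the screen-wide average of all tested compounds plus 3 SD (cut at about 25% in these data); inactive = the rest.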
biological target: Platelet-activating factor acetylhydrolase IB subunit alpha1 (Homo sapiens) (UniProt Q15102); assay: PAFAH1B3 enzyme inhibitors, primary screen, biochemical, fluorescence polarization, human (AID 492972); details: recombinant PAFAH1B3, FP-rhodamine probe, at 3.39 µM, active compounds read high;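 note: 0% = enzyme with DMSO only and 100% = wells lacking PAFAH1B3 protein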

The chains behind the UniProt entries cited, without tags or fusion partners.
UniProt Q15102, whole entry: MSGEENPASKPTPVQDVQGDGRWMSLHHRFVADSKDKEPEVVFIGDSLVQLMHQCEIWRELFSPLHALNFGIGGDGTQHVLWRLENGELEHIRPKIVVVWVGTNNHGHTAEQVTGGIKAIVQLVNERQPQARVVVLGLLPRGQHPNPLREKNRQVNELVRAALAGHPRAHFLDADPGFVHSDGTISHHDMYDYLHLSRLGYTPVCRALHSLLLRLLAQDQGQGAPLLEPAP

Row | Structure (SMILES) | inhibition
1 | NC(=O)Nc1ccc([As](=O)(O)O)cc1 | inactive: -3.21%
